pEC50: −log10 of the molar value.

Protein sequences, listed by entry. Tags and fused reporters are not part of them. Residues count along the entry.
UniProt P15538, 25-503: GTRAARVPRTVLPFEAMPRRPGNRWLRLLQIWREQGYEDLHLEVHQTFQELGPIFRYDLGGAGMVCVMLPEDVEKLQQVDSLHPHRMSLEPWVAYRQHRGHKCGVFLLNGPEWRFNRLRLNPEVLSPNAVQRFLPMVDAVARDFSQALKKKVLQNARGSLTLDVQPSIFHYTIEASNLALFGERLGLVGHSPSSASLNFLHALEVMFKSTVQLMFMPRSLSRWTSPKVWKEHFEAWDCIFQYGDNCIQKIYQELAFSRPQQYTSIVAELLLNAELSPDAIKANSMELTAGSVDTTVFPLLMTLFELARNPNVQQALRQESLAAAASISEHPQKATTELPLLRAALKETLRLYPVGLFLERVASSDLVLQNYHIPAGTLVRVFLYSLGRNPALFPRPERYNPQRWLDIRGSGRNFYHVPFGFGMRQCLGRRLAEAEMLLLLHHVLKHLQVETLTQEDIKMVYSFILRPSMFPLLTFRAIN
UniProt P19099, 25-503: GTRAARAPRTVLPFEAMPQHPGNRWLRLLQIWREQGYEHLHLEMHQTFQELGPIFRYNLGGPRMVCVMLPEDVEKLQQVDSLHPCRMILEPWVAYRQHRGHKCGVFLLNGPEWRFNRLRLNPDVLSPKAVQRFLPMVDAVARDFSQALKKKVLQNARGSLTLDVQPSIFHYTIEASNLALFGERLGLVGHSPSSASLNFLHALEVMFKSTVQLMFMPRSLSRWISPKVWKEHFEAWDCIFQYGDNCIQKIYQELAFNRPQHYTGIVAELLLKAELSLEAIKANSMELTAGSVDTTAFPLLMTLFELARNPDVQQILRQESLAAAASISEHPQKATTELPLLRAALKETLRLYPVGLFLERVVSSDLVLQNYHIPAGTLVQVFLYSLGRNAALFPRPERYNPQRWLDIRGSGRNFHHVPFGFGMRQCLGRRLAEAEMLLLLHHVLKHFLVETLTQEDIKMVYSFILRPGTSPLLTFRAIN

One experiment concerns the target human CYP11B1 (Homo sapiens (Human), UniProt P15538). The experiment can be described thus: G-402 cellular enzyme assay, human CYP11B1 (cortisol release). The format is cell-based. As to conditions: G-402 cells expressing human CYP11B1, 1 μM Deoxycortisol. From the text: Herein we identified the use of the G-402 cell line as a host cell to ectopically express (transiently or stably) enzymes of the CYP11 family. Specifically we developed stable G-402 cells expressing ectopically human CYP11B1, human CYP11B2, human CYP11A1, cynmolgus CYP11B1 or cynomolgus CYP11B2 enzyme activity. Importantly the identified cell line G-402 expresses co-factors (adrenodoxin and adrenodoxin reductase) important for the activity of the CYP11 family and no relevant enzyme activity of the CYP11 family (in comparison to H295R cells) was detected in these cells. Therefore the G-402 cell line is uniquely suited as a host cell for the ectopic expression of enzymes from the CYP11 family.
The expression plasmids contains the ORF for either human/cyno CYP11B1 or CYP11B2 under the control of a suitable promoter (CMV-promoter) and a suitable resistance marker (neomycin). Using standard techniques the expression plasmid is transfected into G-402 cells and these cells are then selected for expressing the given resistance markers. Individual cell-clones are then selected and assessed for displaying the desired enzymatic activity using 11-Deoxycorticosterone (Cyp 11B2) or 11-Deoxycortisol (Cyp 11B1) as a substrate. […]
[formula] wherein, A is the maximum y value, B is the EC50 factor determined using XLFit, C is the minimum y value and D is the slope value. […]

Another experiment concerns the target CYP11B2 (Homo sapiens (Human), UniProt P19099). Nature of the experiment: G-402 cellular enzyme assay, human CYP11B2 (aldosterone release). Conditions: G-402 cells expressing human CYP11B2, 1 μM Deoxycorticosterone. It is filed as cell-based.

For orientation: pEC50 means the EC50 on a negative log10 scale, so that one unit is a factor of ten. The low end stands for a high EC50, the high end for a low EC50. For the compound `CC(C)C(=O)NC1CCCc2c(-c3ccc(C#N)cc3)cncc21` (racemic) [Example 9, (rac)-N-(4-(4-Cyanophenyl)-5,6,7,8-tetrahydroisoquinolin-8-yl)isobutyramide], the values for the pEC50 on human CYP11B1 and on CYP11B2 were 5.38 and 6.91, respectively.

These data come from US9187429B2, “Phenyl-tetrahydroisoquinoline derivatives” (Hoffmann-La Roche Inc., priority 2012, dated 2015).
